Data from PubChem BioAssay AID463115 (University of Pittsburgh Molecular Library Screening Center, 2010).
This is a selection; strong and weak results do not stand in their true shares. Some salts or complexes appear as unconnected parts, following the source record. The source made the active and inactive calls. Cut-off read from the data, not from the text of the source: active = inhibition above about 25%; inactive = the rest.

By UniProt entry, the sequences of proteins in these tests, tags left out. Residues count along the entry.
UniProt P09958, 108-714 limits assumed: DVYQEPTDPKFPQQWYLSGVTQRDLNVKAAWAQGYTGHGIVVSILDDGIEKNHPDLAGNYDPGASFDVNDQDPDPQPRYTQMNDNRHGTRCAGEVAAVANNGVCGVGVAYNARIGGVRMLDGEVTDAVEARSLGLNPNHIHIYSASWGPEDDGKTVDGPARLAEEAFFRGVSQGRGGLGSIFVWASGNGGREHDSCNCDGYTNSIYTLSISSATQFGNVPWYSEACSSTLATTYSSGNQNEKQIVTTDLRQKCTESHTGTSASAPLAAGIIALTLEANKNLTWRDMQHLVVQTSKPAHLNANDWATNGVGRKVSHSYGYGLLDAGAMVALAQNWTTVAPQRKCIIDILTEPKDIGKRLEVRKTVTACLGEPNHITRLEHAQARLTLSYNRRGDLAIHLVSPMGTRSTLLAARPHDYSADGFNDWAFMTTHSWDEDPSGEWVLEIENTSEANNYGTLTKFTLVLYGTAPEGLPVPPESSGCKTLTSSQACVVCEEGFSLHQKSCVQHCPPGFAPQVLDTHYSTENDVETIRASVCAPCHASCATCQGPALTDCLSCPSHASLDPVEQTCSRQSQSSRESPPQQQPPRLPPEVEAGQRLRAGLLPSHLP

What follows are molecules tested against Furin (Homo sapiens) (UniProt P09958) (assay: furin protease activity blockers – biochemical, fluorescence intensity, primary screen (AID 463115)). Conditions: purified furin, fluorogenic substrate cleavage, hits give high values; at 30 µM unless noted.

SMILES | inhibition
CCc1ccc(OP(C)(=O)O)cc1 | inactive: -1.03% [at 20 µM]
COc1ccccc1OP(C)(=O)Nc1ccc(C)cc1C (configuration not stated) | inactive: -15.1% [at 20 µM]
CP(=O)(Nc1ccccn1)Oc1ccccc1 (configuration not stated) | inactive: -16.4% [at 20 µM]
O=[N+]([O-])c1cc([N+](=O)[O-])c(Nc2ccccn2)c([N+](=O)[O-])c1 | inactive: -19.9%
Cc1c(NP(C)(=O)Oc2ccc(C(C)C)cc2)c(=O)n(-c2ccccc2)n1C (configuration not stated) | inactive: -16.9% [at 20 µM]
CN(C)CCOC(=O)C(O)(c1ccccc1)C1CCCC1 (configuration not stated) | inactive: -7.23% [at 20 µM]
COc1ccc(OP(C)(=O)Nc2ccccn2)cc1 (configuration not stated) | inactive: -12% [at 20 µM]
COc1ccccc1OP(C)(=O)Nc1ccc(Br)cc1 (configuration not stated) | inactive: -8.89%
CP(=O)(OCCOc1ccccc1)OCCOc1ccccc1 | inactive: -28%
CP(=O)(Nc1ccc(Cl)cc1Cl)Oc1ccccc1 (configuration not stated) | inactive: -29.5%
Cc1nc2ccc3ccccc3c2o1.O=[N+]([O-])c1cc([N+](=O)[O-])c(O)c([N+](=O)[O-])c1 | inactive: -13.8%
COc1ccccc1OP(C)(=O)Nc1ccc(C)c(C)c1 (configuration not stated) | inactive: -17%
Cc1cc(C)cc(OP(C)(=O)Nc2cccc(C(F)(F)F)c2)c1 (configuration not stated) | inactive: -14.7%
CP(=O)(OC12CC3CC(CC(C3)C1)C2)OC12CC3CC(CC(C3)C1)C2 | inactive: -13.8% [at 20 µM]
CCOC(=O)c1ccc(NP(C)(=O)Oc2ccc(Cl)cc2)cc1 (configuration not stated) | inactive: -15.3%
CN(C)C(=O)c1c([N+](=O)[O-])cc([N+](=O)[O-])cc1[N+](=O)[O-] | inactive: -44.9%
CP(=O)(Nc1ccc(Cl)cc1)Oc1ccc(F)cc1 (configuration not stated) | inactive: -6.78% [at 20 µM]
CC(C)(C)c1ccc(OP(C)(=O)O)cc1 | inactive: -17.8% [at 20 µM]
COc1ccccc1OP(C)(=O)Nc1ccccc1Br (configuration not stated) | inactive: -25.5%
CCc1ccc(OP(C)(=O)Nc2cccnc2)cc1 (configuration not stated) | inactive: -21.3%
CP(=O)(Oc1ccccc1)N1CCOC1=O (configuration not stated) | inactive: -14.6%

SMILES | inhibition
O=C(OCCCN1CCCC1)C(O)(c1ccccc1)C1CCCCC1 (configuration not stated) | inactive: -15.1%
COc1ccccc1OP(C)(=O)Nc1c(C)n(C)n(-c2ccccc2)c1=O (configuration not stated) | inactive: -16.3%
COc1ccc(OP(C)(=O)Nc2ccc(Br)cc2)cc1 (configuration not stated) | inactive: 2.21%
CCN(CC)CC(O)COC(=O)C(O)(c1ccccc1)C1CCCCC1 (configuration not stated) | inactive: -20.9%
Cc1ccccc1NP(C)(=O)Nc1ccccc1C | inactive: -21%
CP(=O)(Nc1ccc2c(c1)OCCO2)Oc1ccccc1 (configuration not stated) | inactive: -22.3% [at 20 µM]
CCOP(C)(=S)SCC(=O)NC(C)(CC)C(=O)O (configuration not stated) | inactive: -19.8%
CP(=O)(Nc1ccc(SC(F)(F)F)cc1)Oc1ccc(F)cc1 (configuration not stated) | inactive: -10.6%
O=[N+]([O-])c1cc([N+](=O)[O-])c(NCC2CCS(=O)(=O)C2)c([N+](=O)[O-])c1 (configuration not stated) | inactive: -17.5%
Cc1cc(-c2cccc3ccccc23)c(C)cn1.O=[N+]([O-])c1cc([N+](=O)[O-])c(O)c([N+](=O)[O-])c1 | inactive: -1.1%
O=[N+]([O-])c1ccc(OP2(=O)COCCO2)cc1 (configuration not stated) | inactive: -27.2%
COc1ccc(NP(C)(=O)Oc2ccccc2OC)cc1 (configuration not stated) | inactive: -19.7%
CN(C)CCOC(=O)C(O)(c1ccccc1)C1CCCCC1 (configuration not stated) | inactive: -5.48% [at 20 µM]
COc1ccc(OP(C)(=O)Nc2cccc(Br)c2)cc1 (configuration not stated) | inactive: -12.6% [at 20 µM]
CCCCCOc1ccc(NP(C)(=O)Oc2ccc(Cl)cc2Cl)cc1 (configuration not stated) | inactive: 7.15%
CP(=O)(Nc1ccccc1)Oc1ccc(F)cc1 (configuration not stated) | inactive: -22.3% [at 20 µM]
CCN(CC)CCCOC(=O)C(O)(c1ccccc1)C1CCCCC1 (configuration not stated) | inactive: -11.5% [at 20 µM]
COc1ccc(OP(C)(=O)Nc2ccc(SC(F)(F)F)cc2)cc1 (configuration not stated) | inactive: -9.74%
CCOC(=O)c1ccc(NP(C)(=O)Oc2ccc(F)cc2)cc1 (configuration not stated) | inactive: 1.26%
COc1ccc2c(c1O)-c1c(O)c(OC)cc3c1[C@H](C2)[N+](C)(C)CC3.O=[N+]([O-])c1cc([N+](=O)[O-])c([O-])c([N+](=O)[O-])c1[O-] | inactive: -17.8%
O=C(OCCN1CCN(CCOCc2ccccc2)CC1)C(O)(c1ccccc1)c1ccccc1 | inactive: -14.1%

SMILES | inhibition
O=C(OC1CN2CCC1CC2)c1ccc([N+](=O)[O-])cc1 (configuration not stated) | inactive: -16.2%
CC(C)c1ccc(OP(C)(=O)Nc2ccc(SC(F)(F)F)cc2)cc1 (configuration not stated) | inactive: 6.09%
CP(=O)(Nc1ccccc1F)Oc1ccccc1 (configuration not stated) | inactive: -30%
CP(=O)(Nc1cccc(Br)c1)Oc1ccccc1 (configuration not stated) | inactive: -23.6%
Cc1cc(C)cc(OP(C)(=O)Nc2ccccn2)c1 (configuration not stated) | inactive: -22.7% [at 20 µM]
Cc1ccc(C)c(NP(C)(=O)Oc2ccccc2)c1 (configuration not stated) | inactive: -12.2% [at 20 µM]
Cc1cc(C)cc(OP(C)(=O)Nc2ccc(C)cc2C)c1 (configuration not stated) | inactive: -24.5% [at 20 µM]
CCOC(=O)c1ccc(NP(C)(=O)Oc2cc(C)cc(C)c2)cc1 (configuration not stated) | inactive: 1.24%
COc1ccccc1OP(C)(=O)Nc1cccc(Br)c1 (configuration not stated) | inactive: -11.8%
CC1=NCCc2c1[nH]c1ccccc21.O=[N+]([O-])c1cc([N+](=O)[O-])c(O)c([N+](=O)[O-])c1 | inactive: 15%
O=C(O)c1cccc(Nc2c([N+](=O)[O-])cc([N+](=O)[O-])cc2[N+](=O)[O-])c1 | inactive: 3.12%
CP(=O)(Nc1ccc(SC(F)(F)F)cc1)Oc1ccccc1 (configuration not stated) | inactive: -7.63%
CCCOc1ccc(NP(C)(=O)Oc2ccc(Cl)cc2)cc1 (configuration not stated) | inactive: -1.17%
CN1CCCCC1COC(=O)C1(O)c2ccccc2CCc2ccccc21 (configuration not stated) | inactive: -12.7%
COc1ccccc1OP(C)(=O)Nc1c(C)cccc1C (configuration not stated) | inactive: -13.6% [at 20 µM]
CCOC(=O)C(CC)C1=NC(C)(C)Cc2ccccc21.O=[N+]([O-])c1cc([N+](=O)[O-])c(O)c([N+](=O)[O-])c1 (configuration not stated) | inactive: -5.64%
O=[N+]([O-])c1cc([N+](=O)[O-])c(Nc2nnnn2CCO)c([N+](=O)[O-])c1 | inactive: -15.8%
Cc1nc2ccc3ccccc3c2s1.O=[N+]([O-])c1cc([N+](=O)[O-])c(O)c([N+](=O)[O-])c1 | inactive: -1.47%
O=[N+]([O-])c1cc([N+](=O)[O-])c(-n2nnc3ccccc32)c([N+](=O)[O-])c1 | inactive: -5.05%
CCOP(C)(=S)SCC(=O)NC(C)C(=O)O (configuration not stated) | inactive: -7.73%
CCOC(=O)c1ccc(NP(C)(=O)Oc2ccc(OC)cc2)cc1 (configuration not stated) | inactive: -10.9%

SMILES | inhibition
Cc1cc(C)cc(OP(C)(=O)Nc2ccc(SC(F)(F)F)cc2)c1 (configuration not stated) | inactive: -9.22%
CCc1ccc(OP(C)(=O)N2CCN(c3ccc([N+](=O)[O-])cc3)CC2)cc1 (configuration not stated) | inactive: 7.02%
CP(=O)(NC(=O)Nc1ccccc1)Oc1ccccc1 (configuration not stated) | inactive: -17%
CP(=O)(Oc1ccccc1)OC(c1ccccc1)C(F)(F)F (configuration not stated) | inactive: -23.3%
CP(=O)(Nc1ccc(SC(F)(F)F)cc1)Oc1ccc(Cl)cc1 (configuration not stated) | inactive: -11%
Cc1cccc(C)c1OP(C)(=O)Nc1ccc(SC(F)(F)F)cc1 (configuration not stated) | inactive: -2.59%
COc1ccccc1OP(C)(=O)Nc1ccccc1 (configuration not stated) | inactive: -14.5%
CP(=O)(Nc1ccccc1Br)Oc1ccccc1 (configuration not stated) | inactive: -1.62%
CP(=S)(Nn1cnnc1)Oc1ccccc1 (configuration not stated) | inactive: -12.6% [at 20 µM]
COc1ccc(OP(C)(=O)Nc2cccc(F)c2)cc1 (configuration not stated) | inactive: -19.9% [at 20 µM]
COc1ccccc1OP(C)(=O)Nc1cc(Cl)ccc1C (configuration not stated) | inactive: -19.6%
Cc1cc(C)cc(OP(C)(N)=O)c1 (configuration not stated) | inactive: -25.3%
CCOC(=O)c1ccc(NP(C)(=O)Oc2ccccc2)cc1 (configuration not stated) | inactive: -19.2%
Cc1ccc(NP(C)(=O)Oc2ccccc2)c(C)c1 (configuration not stated) | inactive: -18.3%
COc1ccccc1OP(C)(=O)Nc1ccc(C)cc1 (configuration not stated) | inactive: -10.1%
Cc1cccc(C)c1OP(C)(N)=O (configuration not stated) | inactive: -21.2%
CC(C)(C)c1ccc(OP(C)(=O)Nc2ccc(SC(F)(F)F)cc2)cc1 (configuration not stated) | inactive: -1.09%
O=[N+]([O-])c1ccc2c(c1)C=Nc1ccccc1O2 | inactive: -14%
CCN(CC)CCCOC(=O)C(O)(c1ccccc1)c1ccccc1 | inactive: -23%
